Data taken from patent US20120107309A1, “POLYMORPHISM IN K-RAS 3' UNTRANSLATED REGION ASSOCIATED WITH CLINICAL OUTCOMES OF CANCER TREATMENTS INDEPENDENT OF K-RAS MUTATION STATUS” (University of Southern California, priority 2009, published 2012).

Tested on: mCRC patients
Assay: IMC-0144 phase II clinical trial (single agent cetuximab), tumor response by K-ras lcs6 genotype
Type: in vivo, human
Description: Background: This study was to test whether k-ras lcs 6 SNP may be associated with clinical outcome in 130 mCRC patients enrolled in IMCL-0144 trial and in 186 patients enrolled in EPIC trial independent of K-Ras mutation status in the tumor.
Methods: K-ras lcs 6 SNP was tested in 130 mCRC patients enrolled in IMC-0144 phase II clinical trial (single agent cetuximab) and in 186 mCRC patients enrolled in a second line phase III trial of cetuximab plus irinotecan versus irinotecan alone (EPIC). Genomic DNA was extracted from dissected formalin fixed paraffin embedded tumor tissue and K-ras mutation status and the polymorphism were analyzed using direct sequencing and PCR-RFLP technique. Forward primer: […] (SEQ ID NO. 1). Reverse primer: […] (SEQ ID NO. 2). Annealing temperature was 60° C.

Substance: Cetuximab
- partial response (PR) rate (patients with wild type K-ras harboring a G allele (TG+GG) of K-ras lcs6, 12 patients): 42%
- partial response (PR) rate (patients with wild type K-ras with TT genotype of K-ras lcs6, 55 patients): 9%
